Yeast mating assay 2: variants of the scFv Ab-95

Target: peptide PDVDLGDISGINAS, taken from heptad repeat 2 (HR2) of SARS-CoV-2 spike.

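Phage display of a naive human antibody library on the peptide gave the parent. Library AAYL52 holds single substitutions and randomly drawn double and triple substitutions in the CDRs. The scFvs were displayed on barcoded MATa yeast, the peptide on MATalpha yeast. Pairs that bind mate more often; barcode pairs of the diploids are counted by sequencing. A regression on co-assayed BCL2-family reference pairs converts the normalised counts of each replicate to an apparent Kd. There are three technical replicates.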

Each scFv is VH, the linker GGGGSGGGGSGGGGS, VL, as in the parent Ab-95, and differs from it in the CDRs of the light chain only.
VH: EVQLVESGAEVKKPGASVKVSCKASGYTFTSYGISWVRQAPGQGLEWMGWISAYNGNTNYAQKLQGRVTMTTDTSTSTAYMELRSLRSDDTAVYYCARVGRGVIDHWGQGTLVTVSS
VL: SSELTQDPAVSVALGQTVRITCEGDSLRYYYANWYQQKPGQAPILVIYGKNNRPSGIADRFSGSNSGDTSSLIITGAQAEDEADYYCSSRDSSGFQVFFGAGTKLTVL

Positions count from residue 1 of the parent VL; Y29T puts T in place of Y. All variants listed here change V97 of the VL, counted from its first residue. Values are apparent Kd, the geometric mean of the replicates that gave a signal; lower means stronger binding. "nd" marks a missing value. The strain was present, yet no cells mated with the target were sequenced in any replicate, which points to weak or no binding. The list is sorted by this average, lowest first, undetected variants last.

Y29T+Y30Q+V97Y: 8.0 nM (3 of 3 replicates).
Y29N+Y31L+V97A: 39 nM (3 of 3 replicates).
E23D+A32P+V97Y: 46 nM (3 of 3 replicates).
E23I+Y29L+V97D: 72 nM (3 of 3 replicates).
Y31F+K50G+V97T: 86 nM (3 of 3 replicates).
F95H+V97N+F98E: 180 nM (3 of 3 replicates).
G94C+V97M: 260 nM (1 of 3 replicates).
G94K+V97A: 300 nM (3 of 3 replicates).
N33R+Q96M+V97T: 410 nM (3 of 3 replicates).
G24M+Y29H+V97D: 510 nM (1 of 3 replicates).
K50T+V97T+F98R: 590 nM (3 of 3 replicates).
S88V+S92E+V97L: 660 nM (3 of 3 replicates).
G94N+F95K+V97Q: 1.4 µM (3 of 3 replicates).
R28L+G94S+V97H: 1.5 µM (3 of 3 replicates).
N33A+S92T+V97F: 1.7 µM (1 of 3 replicates).
L27W+V97H+F98K: 3.2 µM (1 of 3 replicates).
N51T+S93F+V97S: 3.3 µM (3 of 3 replicates).
Y30W+Y31L+V97G: 3.6 µM (3 of 3 replicates).
D25V+R53W+V97H: 5.0 µM (1 of 3 replicates).
N51T+F95Y+V97N: 6.3 µM (1 of 3 replicates).
P54A+R90L+V97E: 7.9 µM (2 of 3 replicates).
G24H+G49H+V97A: 8.4 µM (2 of 3 replicates).
D25R+N51T+V97T: 8.5 µM (1 of 3 replicates).
L27E+S93T+V97L: 9.7 µM (1 of 3 replicates).
E23V+S92P+V97Y: 9.9 µM (3 of 3 replicates).
S26L+S93T+V97H: 13 µM (1 of 3 replicates).
Y29I+S93L+V97P: 20 µM (1 of 3 replicates).
A32L+N33C+V97L: 52 µM (2 of 3 replicates).
N33A+N51T+V97W: 91 µM (1 of 3 replicates).
G49F+V97G: 160 µM (2 of 3 replicates).
N33A+V97N: nd (0 of 3 replicates).
S93L+V97E+F98L: nd (0 of 3 replicates).
K50W+D91V+V97F: nd (0 of 3 replicates).
A32Y+S55N+V97H: nd (0 of 3 replicates).
L27H+R90L+V97G: nd (0 of 3 replicates).

Excerpt, the final 4 entries:

changes,Kd,detected
S93L+V97E+F98L,nd,0/3
K50W+D91V+V97F,nd,0/3
A32Y+S55N+V97H,nd,0/3
L27H+R90L+V97G,nd,0/3

Parent in this assay: reference entry 200 nM, copy in this library 180 nM. Background: pairings of library AAYL52 with three empty control strains gave a value in 28% of cases (median 8.2 µM, 5th percentile 800 nM). Values in that range, when seen in few replicates, are hard to tell from nonspecific mating.

Data: MIT Lincoln Laboratory AlphaSeq set, Engelhart et al. 2022, doi:10.1038/s41597-022-01779-4, as distributed in FLAb.